Legend:
hMC4R = hMC4R (Homo sapiens, UniProt P32245); assay: Human MC4R radioligand binding assay; conditions: hMCR binding selectivity, [125I] NDP-MSH, membranes
Experimental: (§1) • Na^125I (0.5 mCi, 17.4 Ci/mg) was added to 50 μL sodium phosphate (50 mM, pH7.4) in an eppendorf tube precoated with IODOGEN. After incubation for 10 mins the phosphate buffer containing the iodine was added to NDP-MSH (10 ul at 1 mg/mL) in a separate eppendorf tube. This was incubated for a further 10 mins. The iodinated NDP-MSH was purified by HPLC on a Zorbax SB 300 column using solvent A: 0.05% TFA and solvent B: 90% acetonitrile 0.045% TFA with a linear gradient, 0-67% B over 60 mins. […] Resuspended membranes were kept on ice until they were added to the wells of the plate. Binding Protocol for 400 microassays per vial: • Assays were performed in 96 well polypropylene plates. […] This was incubated for 1 hr at 37° C.
Radioligand binding assays were carried out using commercial or in-house prepared hMC1R, hMC3R and hMC4R membranes and [125I]
The homogenisation and ice incubation was repeated three times. The mixture was then centrifuged at 1260×g for 5 mins. […] This was centrifuged at 30,000×g for 90 mins at 4° C.

Amino acid sequences for entries named in this document (tags omitted). A change or cut given only in a name is not applied to a line headed by its entry.
UniProt P32245, whole entry: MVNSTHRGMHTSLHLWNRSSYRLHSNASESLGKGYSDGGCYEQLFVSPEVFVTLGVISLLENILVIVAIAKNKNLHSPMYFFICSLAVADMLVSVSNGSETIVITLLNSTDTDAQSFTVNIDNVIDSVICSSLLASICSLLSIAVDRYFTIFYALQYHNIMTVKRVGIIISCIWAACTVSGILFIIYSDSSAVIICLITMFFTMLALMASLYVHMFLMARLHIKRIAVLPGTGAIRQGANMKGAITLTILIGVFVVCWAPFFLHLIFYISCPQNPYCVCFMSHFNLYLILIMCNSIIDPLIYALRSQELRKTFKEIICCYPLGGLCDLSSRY
UniProt Q01726: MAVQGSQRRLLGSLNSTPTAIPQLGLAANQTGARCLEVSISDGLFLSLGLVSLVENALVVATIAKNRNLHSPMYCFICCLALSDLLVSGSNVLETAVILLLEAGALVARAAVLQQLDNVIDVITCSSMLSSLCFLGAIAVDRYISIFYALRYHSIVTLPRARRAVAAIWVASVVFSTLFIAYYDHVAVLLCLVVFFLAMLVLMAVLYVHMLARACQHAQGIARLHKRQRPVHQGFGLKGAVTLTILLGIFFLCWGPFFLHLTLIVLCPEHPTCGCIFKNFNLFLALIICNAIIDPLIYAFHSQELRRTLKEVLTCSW
UniProt P33032: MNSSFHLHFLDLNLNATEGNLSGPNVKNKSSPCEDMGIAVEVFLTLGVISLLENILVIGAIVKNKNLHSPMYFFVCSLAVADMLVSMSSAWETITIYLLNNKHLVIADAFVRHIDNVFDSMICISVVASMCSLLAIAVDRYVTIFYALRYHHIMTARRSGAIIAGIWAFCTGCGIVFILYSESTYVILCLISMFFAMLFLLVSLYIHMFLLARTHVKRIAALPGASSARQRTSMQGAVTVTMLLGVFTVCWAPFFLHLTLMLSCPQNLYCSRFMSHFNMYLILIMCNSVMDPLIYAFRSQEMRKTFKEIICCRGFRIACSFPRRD
UniProt P41968: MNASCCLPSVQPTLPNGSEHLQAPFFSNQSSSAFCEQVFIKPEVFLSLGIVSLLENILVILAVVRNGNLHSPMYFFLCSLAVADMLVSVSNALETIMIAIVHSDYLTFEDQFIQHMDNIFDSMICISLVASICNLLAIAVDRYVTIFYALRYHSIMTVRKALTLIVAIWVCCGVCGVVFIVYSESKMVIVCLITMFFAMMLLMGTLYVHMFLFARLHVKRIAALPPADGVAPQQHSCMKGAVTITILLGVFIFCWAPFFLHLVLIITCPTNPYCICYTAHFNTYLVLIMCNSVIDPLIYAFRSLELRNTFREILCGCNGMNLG

hMC1R = hMC1R (Homo sapiens, UniProt Q01726); assay: Human MC1R radioligand binding assay; conditions: hMCR binding selectivity, [125I] NDP-MSH, membranes
Experimental: (§2) • Na^125I (0.5 mCi, 17.4 Ci/mg) was added to 50 μL sodium phosphate (50 mM, pH7.4) in an eppendorf tube precoated with IODOGEN. After incubation for 10 mins the phosphate buffer containing the iodine was added to NDP-MSH (10 ul at 1 mg/mL) in a separate eppendorf tube. This was incubated for a further 10 mins. The iodinated NDP-MSH was purified by HPLC on a Zorbax SB 300 column using solvent A: 0.05% TFA and solvent B: 90% acetonitrile 0.045% TFA with a linear gradient, 0-67% B over 60 mins. The ^125I NDP-MSH eluted at 52 min after the unlabeled starting material (48 min) and was counted and stored in the freezer. […] Reagents: • Incubation buffer: 25 mM HEPES-KOH (pH 7.0), 1.5 mM CaCl2, 1 mM MgSO4, 0.1M NaCl, 1 mM 1,10-phenanthroline, and 1 Complete™ protease inhibitor tablet/100 mL (Roche, catalog number 1873580) • Perkin Elmer frozen hMC5 membranes: catalog number RBXMC5M400UA, 0.4 mL/vial; 400 microassays/vial 0.78 mg/mL protein concentration Vials of frozen membranes were thawed rapidly immediately before use, diluted with binding buffer and vortexed. Resuspended membranes were kept on ice until they were added to the wells of the plate. Binding Protocol for 400 microassays per vial: • Assays were performed in 96 well polypropylene plates. […] This was incubated for 1 hr at 37° C. […] Non-specific binding just under 5%. […]

human MC5R [1] = target: T1, human MC5R (Homo sapiens, UniProt P33032); assay: cAMP assay, antagonism of alpha-MSH, HEK 293 cells expressing human MC5R; type: cell-based; conditions: antagonism of 10^−6 M alpha-MSH
T1 construct: host or cells: HEK 293

human MC5R [2] = target: T1, human MC5R; assay: cAMP stimulation assay, agonism, HEK 293 cells expressing human MC5R; type: cell-based
hMC3R = hMC3R (Homo sapiens, UniProt P41968); assay: Human MC3R radioligand binding assay; conditions: hMCR binding selectivity, [125I] NDP-MSH, membranes
Experimental: as §2

human MC5R (whole cells) = target: T2, human MC5R (whole cells) (Homo sapiens, UniProt P33032); assay: MC5R radioligand binding, human MC5R whole cells
T2 construct: host or cells: HEK 293
Experimental: as §1, with “C. Non-specific binding was determined with 3 mM NDP-MSH. Plates were filtered using a Tomtec cell harvester with GF/A filters (Wallac) (presoaked in 0.6% polyethylenimine) and washed three times with 1.0 mL ice-cold wash buffer (the above incubation buffer without 1,10-phenanthroline and Complete™ protease inhibitor tablet). […] Prepared filters were counted in cassettes in a Microbeta Trilux (Wallac) for 1 min. […] Data analysis was performed using GraphPad Prism 4, employing competition binding with a single site model and a fixed Hill coefficient.” for “C.”

human MC5R (hMC5R) = target: T3, human MC5R (hMC5R) (Homo sapiens, UniProt P33032); assay: Human MC5R radioligand binding assay (membranes, [125I] NDP-MSH displacement); conditions: tested as trifluoroacetate or hydrochloride salts, or free bases
T3 construct: purchased Perkin Elmer RBXMC5M400UA
Experimental: Assessments of compound binding to human MC5R (hMC5R) ) by displacement of an ^125I-labeled NDP-MSH receptor ligand peptide were performed essentially as described in the data sheets produced by Perkin Elmer to accompany their frozen hMC5R membranes (Perkin Elmer catalog number RBXMC5M400UA).
[^125I] NDP-MSH: radiolabeled in house and purified by HPLC:
as §1

Work on `O=C(NC[C@@H]1CCN(CC(c2ccccc2)c2ccccc2)C(=O)[C@H](CCCN2CCCCC2)N1)c1ccc2ccccc2c1` [Compound 64, N-(((3S,5S)-1-(2,2-diphenylethyl)-2-oxo-3-(3-(piperidin-1-yl)propyl)-1,4-diazepan-5-yl)methyl)-2-naphthamide] yielded an IC50 (hMC4R) of 3490 nM, an IC50 (hMC1R) of 9220 nM and an IC50 (human MC5R [1]) of 70 nM. It also gave an EC50 (human MC5R [2]) of over 10000 nM, an IC50 (hMC3R) of 2240 nM and an IC50 (human MC5R (whole cells)) of 127 nM. For the same compound, the IC50 (human MC5R (hMC5R)) was under 100 nM.

In the case of `N=C(N)NCCC[C@@H]1N[C@H](CNC(=O)c2ccc3ccccc3c2)CCN(CC(c2ccccc2)c2ccccc2)C1=O` [Compound 105, N-(((3S,5S)-1-(2,2-diphenylethyl)-3-(3-guanidinopropyl)-2-oxo-1,4-diazepan-5-yl)methyl)-2-naphthamide], the IC50 (human MC5R [1]) is reported as 400 nM, the EC50 (human MC5R [2]) is reported as over 10000 nM and the IC50 (hMC3R) is reported as 1750 nM. The IC50 (human MC5R (whole cells)) was 219 nM.

Source: patent US8008291B2 (Mimetica Pty Ltd, priority 2008, dated 2011)
